Assay [1] deals with IL-23R-expressing DB cells (Homo sapiens, UniProt Q5VWK5). The experiment in a line: cell-based. Type of assay: cell-based.
The target of assay [2] is T1, human IL-23R (IL23R_huFC) (Homo sapiens, UniProt Q5VWK5).
The target in assay [3] is T1, human IL-23R (IL23R_huFC). The experiment in a line: biochemical. The following applies: Human ELISA IC50. In general terms: In an ELISA, binding on a coated surface is turned into a signal by an enzyme label.
For assay [4], the system named is TNBS-induced acute colitis, Sprague-Dawley rats. The experiment in a line: TNBS induced colitis in rat. Type of assay: in vivo.
The mark [5] stands for this setting: Table E4B, class symbols, DB cells, IL-23 0.5 nM, read-out: pStat3 HTRF IC50.
Where [6] appears, read: Table E3H, DB cells, IL-23 0.5 nM, read-out: pStat3 HTRF IC50.
[7] abbreviates: read-out: Human IL23R/IL23 ELISA, peptide dimers, numeric.
Setting [8] is: read-out: Human ELISA IL23/IL23R.

The chains behind the UniProt entries cited, without tags or fusion partners. Residues count along the entry.
UniProt Q5VWK5, 24-629 limits assumed: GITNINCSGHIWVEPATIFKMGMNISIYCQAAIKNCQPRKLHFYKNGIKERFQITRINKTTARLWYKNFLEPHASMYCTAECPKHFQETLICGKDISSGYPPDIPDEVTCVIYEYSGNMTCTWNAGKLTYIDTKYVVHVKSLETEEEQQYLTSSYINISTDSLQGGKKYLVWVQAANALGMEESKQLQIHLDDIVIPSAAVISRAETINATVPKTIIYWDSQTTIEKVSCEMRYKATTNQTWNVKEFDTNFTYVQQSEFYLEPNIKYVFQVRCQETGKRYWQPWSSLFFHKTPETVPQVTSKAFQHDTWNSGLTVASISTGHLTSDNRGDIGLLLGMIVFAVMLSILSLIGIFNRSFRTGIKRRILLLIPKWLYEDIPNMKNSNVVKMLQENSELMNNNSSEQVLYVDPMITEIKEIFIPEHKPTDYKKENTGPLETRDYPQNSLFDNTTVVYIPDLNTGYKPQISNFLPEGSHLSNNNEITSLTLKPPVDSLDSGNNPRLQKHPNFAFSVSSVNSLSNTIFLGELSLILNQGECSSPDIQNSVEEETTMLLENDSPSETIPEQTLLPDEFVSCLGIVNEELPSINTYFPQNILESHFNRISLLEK
UniProt Q5VWK5, 24-354 limits assumed, looked up: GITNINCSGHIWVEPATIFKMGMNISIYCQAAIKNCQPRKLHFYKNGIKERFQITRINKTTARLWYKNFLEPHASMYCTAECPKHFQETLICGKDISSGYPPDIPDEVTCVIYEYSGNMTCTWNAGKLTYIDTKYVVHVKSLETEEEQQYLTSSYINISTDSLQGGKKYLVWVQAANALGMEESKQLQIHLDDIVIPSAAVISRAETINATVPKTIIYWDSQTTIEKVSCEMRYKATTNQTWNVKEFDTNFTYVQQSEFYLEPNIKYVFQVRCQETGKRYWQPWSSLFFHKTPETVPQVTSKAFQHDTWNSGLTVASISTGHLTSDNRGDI

SMILES strings stand for the structures. Where two headings read alike, the source gives them in different places.

For `CC(=O)NCCCC[C@H](NC(=O)C(C)(C)NC(=O)[C@H](Cc1ccc2ccccc2c1)NC(=O)[C@H](Cc1ccc(OCCN)cc1)NC(=O)[C@H]1NC(=O)[C@H](CCC(N)=O)NC(=O)[C@H](Cc2c[nH]c3ccccc23)NC(=O)[C@H]([C@@H](C)O)NC(=O)[C@H](CCC(N)=O)NC(=O)[C@@H](NC(=O)[C@@H](NC(C)=O)[C@@H](C)O)C(C)(C)SSC1(C)C)C(=O)N[C@@H](CC(N)=O)C(=O)N[C@@H](CC(N)=O)C(N)=O` [compound 649], the IC50 in assay [1] (setting [5]) is less than 10 nM.
Regarding `CC(=O)N[C@@H]1C(=O)N[C@@H](CCCNC(=N)N)C(=O)N[C@@H]([C@@H](C)O)C(=O)N[C@@H](Cc2c[nH]c3ccccc23)C(=O)N[C@@H](CCC(N)=O)C(=O)N[C@H](C(=O)N[C@@H](Cc2ccc(O)cc2)C(=O)N[C@@H](Cc2c[nH]c3ccccc23)C(=O)N[C@@H](CCCNC(=N)N)C(=O)N[C@@H](CCCCN)C(=O)N[C@@H](Cc2ccccc2)C(=O)NCC(=O)NCCOCC(=O)N[C@H](CCCCN)C(N)=O)CSSC1(C)C` [compound 1024], the IC50 in assay [2] (read-out: Human ELISA, Cys/Pen peptides, class symbols) lay in the range of 100 to 1000 nM; in assay [1] (Cys/Pen peptides, read-out: p5tat3 HTRF), 100 to 1000 nM.
As to `CC(=O)N[C@H]1CSSC[C@@H](C(=O)N[C@@H](Cc2ccc(O)cc2)C(=O)N[C@@H](Cc2c[nH]c3ccccc23)C(=O)N[C@@](C)(CCCN)C(=O)N[C@@H](CCC(=O)O)C(=O)N[C@@H](CC(N)=O)C(=O)NCC(N)=O)NC(=O)[C@H](CCC(N)=O)NC(=O)[C@H](Cc2c[nH]c3ccccc23)NC(=O)[C@H]([C@@H](C)O)NC(=O)[C@H](CCC(N)=O)NC1=O` [compound 458], the IC50 in assay [1] (setting [6]) is 7 nM.
Regarding `CC(=O)N[C@@H]1CCSC[C@@H](C(=O)N[C@@H](Cc2ccc(OCCN)cc2)C(=O)N[C@@H](Cc2ccc3ccccc3c2)C(=O)NC2(C(=O)N[C@@H](CCC(=O)O)C(=O)N[C@@H](CC(N)=O)C(=O)N[C@@H](CC(N)=O)C(N)=O)CCOCC2)NC(=O)[C@H](CCC(N)=O)NC(=O)[C@H](Cc2c[nH]c3ccccc23)NC(=O)[C@H]([C@@H](C)O)NC(=O)[C@@H](CCC(N)=O)NC1=O` [SEQ ID NO: 980], the IC50 in assay [1] (Cell assay (nM) Hu DB Cell (pSTAT3), IC50) is 0.6 nM; in assay [1] (pStat3 HTRF IC50), less than 10 nM; in assay [3], less than 10 nM.
As to `CC(=O)N[C@H]1CSSC[C@@H](C(=O)N[C@@H](Cc2ccc(O)cc2)C(=O)N[C@@H](Cc2c[nH]c3ccccc23)C(=O)N[C@@](C)(CCCN)C(=O)N[C@@H](CCC(=O)O)C(=O)N[C@@H](CC(N)=O)C(=O)NCC(N)=O)NC(=O)[C@H](CCC(N)=O)NC(=O)[C@H](Cc2c[nH]c3ccccc23)NC(=O)[C@H]([C@@H](C)O)NC(=O)[C@H](CCC(N)=O)NC1=O` [compound 457], the IC50 in assay [1] (setting [6]) is 12 nM.
On to `C[C@]12C=CC(=O)C=C1CC[C@@H]1[C@@H]2[C@@H](O)C[C@@]2(C)[C@H]1CC[C@]2(O)C(=O)CO` [prednisolone, reference compound], for which, in assay [4] (Example 12), the histopathology scores entry is “reduced”. For the same molecule, in assay [4] (Example 12, vs vehicle), the colon macroscopic score result was “significantly reduced” and the “colon weight to colon length ratios” value was “significant reduction”. Besides, the weight loss result in assay [4] (Example 12, Peptide 1185 37 mg/kg/day PO, anti-IL-23p19 4 mg/kg ip, prednisolone 10 mg/day P.O., vs vehicle) is on record as “prevented”.
As for `CC(=O)NCCCC[C@H](NC(=O)C(C)(C)NC(=O)[C@H](Cc1ccc2ccccc2c1)NC(=O)[C@H](Cc1ccc(OCCN)cc1)NC(=O)[C@H]1NC(=O)[C@H](CCC(N)=O)NC(=O)[C@H](Cc2c[nH]c3ccccc23)NC(=O)[C@H]([C@@H](C)O)NC(=O)[C@H](CCC(N)=O)NC(=O)[C@@H](NC(=O)[C@H](Cc2ccc3ccccc3c2)NC(C)=O)C(C)(C)SSC1(C)C)C(=O)N[C@@H](CC(N)=O)C(=O)N[C@@H](CC(N)=O)C(N)=O` [compound 648], the IC50 in assay [1] (setting [5]) is less than 10 nM.
Turning to `CC(=O)N[C@H](CCCCNC(=O)COCC(=O)NCCCC[C@@H](NC(C)=O)C(=O)N[C@H]1CSSC[C@@H](C(=O)N[C@@H](Cc2ccc(O)cc2)C(=O)N[C@@H](Cc2c[nH]c3ccccc23)C(=O)N[C@@H](Cc2c[nH]cn2)C(=O)N[C@H](C(=O)N[C@@H](Cc2ccccc2)C(=O)NCC(=O)O)[C@@H](C)O)NC(=O)[C@H](C(C)C)NC(=O)[C@H](Cc2c[nH]c3ccccc23)NC(=O)[C@H](CC(=O)O)NC(=O)[C@H](C)NC1=O)C(=O)N[C@H]1CSSC[C@@H](C(=O)N[C@@H](Cc2ccc(O)cc2)C(=O)N[C@@H](Cc2c[nH]c3ccccc23)C(=O)N[C@@H](Cc2c[nH]cn2)C(=O)N[C@H](C(=O)N[C@@H](Cc2ccccc2)C(=O)NCC(=O)O)[C@@H](C)O)NC(=O)[C@H](C(C)C)NC(=O)[C@H](Cc2c[nH]c3ccccc23)NC(=O)[C@H](CC(=O)O)NC(=O)[C@H](C)NC1=O` [compound 295], the IC50 in assay [2] (setting [7]) is more than 10000 nM.
For `CC(=O)N[C@H]1CSSC[C@@H](C(=O)N[C@@H](Cc2ccc(O)cc2)C(=O)N[C@@H](Cc2c[nH]c3ccccc23)C(=O)N[C@@H](CCCN)C(=O)N[C@@](C)(CC(C)C)C(=O)N[C@@H](Cc2ccccc2)C(=O)NCC(=O)NCCOCC(=O)N[C@H](CCCCN)C(N)=O)NC(=O)[C@H](C(C)C)NC(=O)[C@H](Cc2c[nH]c3ccccc23)NC(=O)[C@H](CC(=O)O)NC(=O)[C@H](C)NC1=O` [compound 79], the IC50 in assay [2] (setting [8]) is approximately 6000 nM.
Consider `CSCC[C@H](NC(=O)[C@H](C)NC(=O)[C@H](CCCCN)NC(C)=O)C(=O)N[C@H](C(=O)N[C@@H](Cc1c[nH]c2ccccc12)C(=O)N[C@@H](CCC(N)=O)C(=O)N[C@@H](CC(=O)O)C(=O)N[C@@H](Cc1ccc(O)cc1)C(=O)N[C@@H](Cc1c[nH]c2ccccc12)C(=O)N[C@@H](CC(C)C)C(=O)N[C@@H](Cc1ccc(O)cc1)C(=O)NCC(=O)N[C@@H](CCCNC(=N)N)C(N)=O)[C@@H](C)O` [compound 6], for which the IC50 in assay [2] (read-out: ELISA IL23R/IL23 in nMoles (IC50), non-cyclic peptides) came to 5600 nM.
For `CC(=O)N[C@H]1CSSC[C@@H](C(=O)N[C@@H](Cc2ccc(O)cc2)C(=O)N[C@@H](Cc2c[nH]c3ccccc23)C(=O)N[C@@H](Cc2c[nH]cn2)C(=O)N[C@H](C(=O)N[C@@H](Cc2ccccc2)C(=O)NCC(=O)O)[C@@H](C)O)NC(=O)[C@H](CCCCNC(=O)COCC(=O)NCCCC[C@@H]2NC(=O)[C@H](Cc3c[nH]c4ccccc34)NC(=O)[C@H](CC(=O)O)NC(=O)[C@H](C)NC(=O)[C@@H](NC(C)=O)CSSC[C@@H](C(=O)N[C@@H](Cc3ccc(O)cc3)C(=O)N[C@@H](Cc3c[nH]c4ccccc34)C(=O)N[C@@H](Cc3c[nH]cn3)C(=O)N[C@H](C(=O)N[C@@H](Cc3ccccc3)C(=O)NCC(=O)O)[C@@H](C)O)NC2=O)NC(=O)[C@H](Cc2c[nH]c3ccccc23)NC(=O)[C@H](CC(=O)O)NC(=O)[C@H](C)NC1=O` [compound 297], the IC50 in assay [2] (setting [7]) is more than 10000 nM.
Take `CC(=O)NCCCC[C@H](NC(=O)[C@@](C)(NC(=O)[C@H](Cc1ccc2ccccc2c1)NC(=O)[C@H](Cc1ccc(C(N)=O)cc1)NC(=O)[C@H]1NC(=O)[C@H](CCC(N)=O)NC(=O)[C@H](Cc2c[nH]c3ccccc23)NC(=O)[C@H]([C@@H](C)O)NC(=O)[C@H](CCC(N)=O)NC(=O)[C@@H](NC(=O)[C@@H](CCCCN)NC(C)=O)C(C)(C)SSC1(C)C)C(C)C)C(=O)N[C@@H](CC(N)=O)C(=O)N[C@@H](CC(N)=O)C(N)=O` [compound 667]: in assay [1] (setting [5]), the IC50 is 1000 to 10000 nM.
`CC(=O)N[C@H]1CSSC[C@@H](C(=O)N[C@@H](Cc2ccc(O)cc2)C(=O)N[C@@H](Cc2c[nH]c3ccccc23)C(=O)N[C@H](CC(=O)N[C@H](C(=O)N[C@@H](CC(N)=O)C(=O)NCC(=O)NCCOCC(=O)N[C@H](CCCCN)C(N)=O)C(C)C)CC(C)C)NC(=O)[C@H](CCC(N)=O)NC(=O)[C@H](Cc2c[nH]c3ccccc23)NC(=O)[C@H]([C@@H](C)O)NC(=O)[C@H](CCC(N)=O)NC1=O` [compound 332]: the IC50 in assay [2] (setting [8]) was determined as 311 nM.
For `CC(=O)NCCCC[C@H](NC(=O)C(C)(C)NC(=O)[C@H](Cc1ccc2ccccc2c1)NC(=O)[C@H](Cc1ccc(OCCN)cc1)NC(=O)[C@H]1NC(=O)[C@H](CCC(N)=O)NC(=O)[C@H](Cc2c[nH]c3ccccc23)NC(=O)[C@H]([C@@H](C)O)NC(=O)[C@H](CCC(N)=O)NC(=O)[C@@H](NC(=O)[C@H](CC(C)C)NC(C)=O)C(C)(C)SSC1(C)C)C(=O)N[C@@H](CC(N)=O)C(=O)N[C@@H](CC(N)=O)C(N)=O` [compound 650], in assay [1] (setting [5]), the IC50 was less than 10 nM.
Turning to `CC(=O)N[C@H](CCCCNC(=O)COCC(=O)NCCCC[C@@H](NC(C)=O)C(=O)N[C@@H](CO)C(=O)N[C@H]1CSSC[C@@H](C(=O)N[C@@H](Cc2ccc(O)cc2)C(=O)N[C@@H](Cc2c[nH]c3ccccc23)C(=O)N[C@@H](Cc2c[nH]cn2)C(=O)N[C@H](C(=O)N[C@@H](Cc2ccccc2)C(=O)NCC(=O)O)[C@@H](C)O)NC(=O)[C@H](C(C)C)NC(=O)[C@H](Cc2c[nH]c3ccccc23)NC(=O)[C@H](CC(=O)O)NC(=O)[C@H](C)NC1=O)C(=O)N[C@@H](CO)C(=O)N[C@H]1CSSC[C@@H](C(=O)N[C@@H](Cc2ccc(O)cc2)C(=O)N[C@@H](Cc2c[nH]c3ccccc23)C(=O)N[C@@H](Cc2c[nH]cn2)C(=O)N[C@H](C(=O)N[C@@H](Cc2ccccc2)C(=O)NCC(=O)O)[C@@H](C)O)NC(=O)[C@H](C(C)C)NC(=O)[C@H](Cc2c[nH]c3ccccc23)NC(=O)[C@H](CC(=O)O)NC(=O)[C@H](C)NC1=O` [compound 292], the IC50 in assay [2] (setting [7]) was more than 10000 nM.
As for `CC(=O)N[C@H]1CSSC[C@@H](C(=O)N[C@@H](Cc2ccc(O)cc2)C(=O)N[C@H](CC(=O)N[C@@H](CCCN)C(=O)N[C@@H](CN)C(=O)N[C@@H](Cc2ccccc2)C(=O)NCC(=O)NCCOCC(=O)N[C@H](CCCCN)C(N)=O)Cc2c[nH]c3ccccc23)NC(=O)[C@H](C(C)C)NC(=O)[C@H](Cc2c[nH]c3ccccc23)NC(=O)[C@H](CC(=O)O)NC(=O)[C@H](C)NC1=O` [compound 78], in assay [2] (setting [8]), the IC50 was approximately 6000 nM.

These data come from patent publication US10787490B2, “Peptide inhibitors of interleukin-23 receptor and their use to treat inflammatory diseases” (Protagonist Therapeutics, Inc., priority 2015, dated 2020).
